Data on six molecules can be found in ChEMBL document CHEMBL5137074 (J Med Chem, 2022).

Chains of the proteins cited; added tags and fusions are not shown.
UniProt P08684, whole entry: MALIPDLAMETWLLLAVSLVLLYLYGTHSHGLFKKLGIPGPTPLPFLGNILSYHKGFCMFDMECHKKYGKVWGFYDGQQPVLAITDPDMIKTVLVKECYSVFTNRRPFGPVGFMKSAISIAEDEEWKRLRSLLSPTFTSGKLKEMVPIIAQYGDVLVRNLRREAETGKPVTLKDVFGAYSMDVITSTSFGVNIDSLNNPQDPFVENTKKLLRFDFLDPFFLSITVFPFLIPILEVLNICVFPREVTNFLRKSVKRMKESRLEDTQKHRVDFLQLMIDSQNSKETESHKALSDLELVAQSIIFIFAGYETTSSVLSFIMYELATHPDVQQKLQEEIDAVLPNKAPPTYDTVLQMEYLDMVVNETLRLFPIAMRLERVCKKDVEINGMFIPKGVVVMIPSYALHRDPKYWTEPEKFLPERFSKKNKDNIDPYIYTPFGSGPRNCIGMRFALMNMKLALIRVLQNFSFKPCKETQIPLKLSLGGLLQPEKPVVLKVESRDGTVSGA

Data set [1] has as its target T1, Membrane-associated tyrosine- and threonine-specific cdc2-inhibitory kinase (Homo sapiens, UniProt Q99640).
T1 sequence (Q99640 whole entry): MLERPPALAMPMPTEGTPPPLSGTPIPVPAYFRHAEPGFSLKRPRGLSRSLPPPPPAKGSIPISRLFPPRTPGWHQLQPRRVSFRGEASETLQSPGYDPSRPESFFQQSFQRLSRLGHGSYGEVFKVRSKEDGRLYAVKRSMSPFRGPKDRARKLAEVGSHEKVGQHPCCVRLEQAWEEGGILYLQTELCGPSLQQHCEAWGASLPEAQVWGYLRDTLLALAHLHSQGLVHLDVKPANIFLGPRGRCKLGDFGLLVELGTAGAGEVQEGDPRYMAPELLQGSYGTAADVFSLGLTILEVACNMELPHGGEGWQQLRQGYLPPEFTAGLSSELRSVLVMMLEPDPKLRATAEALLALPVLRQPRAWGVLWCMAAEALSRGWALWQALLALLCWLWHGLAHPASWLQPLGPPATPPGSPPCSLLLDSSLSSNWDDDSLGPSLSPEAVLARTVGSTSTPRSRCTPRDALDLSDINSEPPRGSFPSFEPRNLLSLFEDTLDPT

The next data set concerns the target CYP3A4 (Homo sapiens, UniProt P08684). The data set can be described thus: in vitro.

On to `Cc1ccc(O)cc1-n1c(N)c(C(=O)NCCO)c2nc3ccccc3nc21`, for which the half-inhibitory concentration (IC50) – broadly, the concentration needed to halve the response being measured – in data set [1] came to 1.2 µM.

`Cc1ccc(O)c(C)c1-n1c(Cl)c(C(N)=O)c2nc3ccccc3nc21`: in data set [1], the IC50 amounted to 2.4 µM.

Consider `Cc1cc(O)ccc1-n1c(N)c(C(N)=O)c2nc3ccccc3nc21`, for which it took 8.4 µM to reach half-maximal inhibition in data set [1] (IC50).

Molecule `NC(=O)c1c(N)n(-c2cccc(O)c2)c2nc3ccccc3nc12` displayed an IC50 in data set [1] of 0.37 µM.

For the molecule `COc1ccc(C)c(-n2c(N)c(C(N)=O)c3nc4ccccc4nc32)c1C`, half-maximal inhibition in data set [1] (IC50) required 5.3 µM.

`Cc1ccc(O)c(C)c1-n1c(N)c(C(N)=O)c2nccnc21`: the IC50 shift at CYP3A4 was found to be 1.
